Screens deposited in PubChem BioAssay by ICCB-Longwood Screening Facility, Harvard Medical School.
HCMV UL50-53 inh: inhibitors of HCMV UL50-UL53 nuclear egress complex interaction; HTRF UL50-UL53 interaction, normalized percent inhibition; inhibition, % (concentration not given with the values); 0.15% of 190,000 active; in the data active = inhibition above about 27%, passing the limit was not always enough
Sa growth 42C: inhibitors of Staphylococcus aureus growth at 42 °C | S. aureus RN4220 growth, OD600, 20 h; active compounds read low | relative growth, % (concentration not given with the values) | 0.53% of 170,000 active | AID 720641;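 active = relative growth at most 50% at the other temperature and 20+ points below 30 °C, or under 10% at both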
GIV Gai3 FP: inhibitors of GIV peptide binding to Galpha-i3, primary screen, biochemical, fluorescence polarization, FITC-GIV GBA peptide, rat Galphai3; hit rate 0.42% among 210,000; percent of control (FP), % (concentration not given with the values); 90 min; stronger effect = lower value; scaled: aluminum fluoride 0%, vehicle 100%; Guanine nucleotide-binding protein G(i) subunit alpha-3 (Rattus norvegicus), P08753;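 active = replicate mean at 85% of control or lower, very high polarization wells dropped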;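 note: wells of about 15 µL received 100 nL stock; the first replicate is given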
GIV Gai FP conf: confirmation of inhibitors of GIV binding to rat Galpha-i3; shares compounds with GIV Gai3 FP; FITC-GIV peptide binding to Galphai3, fluorescence polarization; active compounds read low; fluorescence polarization, mP at 100 µM; 38% of 580 active;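 active = inhibition score of 15 or more, meaning 100 minus mean polarization as percent of control over three replicates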;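 also: lower mP means peptide displaced from Galphai3 so more inhibition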
GIV-Gai AS conf: confirmation of inhibitors of GIV binding to human Galpha-i3; AlphaScreen Galphai3-GIV binding, purified proteins, 90 min; active compounds read low; shares compounds with GIV Gai3 FP; 39% of 580 active; AlphaScreen counts at 100 µM;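 active = inhibition score at or above a set limit, where the score is 100 minus the three-replicate mean percent of control signal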
Numbers without * were called inactive; nt = no result given. A selection: hits, their analogues and other compounds. The true share with any hit is near 0.7%.

The chains behind the UniProt entries cited, without tags or fusion partners.
Guanine nucleotide-binding protein G(i) subunit alpha-3 (Rattus norvegicus), P08753, UniProt P08753, whole entry, looked up: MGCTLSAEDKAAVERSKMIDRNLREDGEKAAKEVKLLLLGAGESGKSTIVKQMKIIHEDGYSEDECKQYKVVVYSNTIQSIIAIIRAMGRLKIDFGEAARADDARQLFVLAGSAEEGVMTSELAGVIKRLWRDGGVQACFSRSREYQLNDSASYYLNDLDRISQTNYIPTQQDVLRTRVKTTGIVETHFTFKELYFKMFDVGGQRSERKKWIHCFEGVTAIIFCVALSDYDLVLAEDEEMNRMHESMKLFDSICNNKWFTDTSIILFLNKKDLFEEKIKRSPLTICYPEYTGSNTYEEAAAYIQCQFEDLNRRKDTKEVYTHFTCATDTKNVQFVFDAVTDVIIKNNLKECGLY

SMILES	HCMV UL50-53 inh	Sa growth 42C	GIV Gai3 FP	GIV Gai FP conf	GIV-Gai AS conf
CCCCSc1nnc2c(n1)OC(c1ccc(Br)s1)Nc1ccccc1-2 (stereo not drawn)	-17	106	40*	89	19457
CCCCSc1nnc2c(n1)OC(c1cccs1)Nc1ccccc1-2 (stereo not drawn)	-24	nt	108	nt	nt
COc1ccc(-c2nc(SCC(=O)N3CCCC3)c3c(=O)n(C)c(=O)n(C)c3n2)cc1	6	95	105	nt	nt
O=c1c(=NO)c(=O)c2ccccc12	62	99	55*	47*	13907*
O=c1c2ccccc2c2nc3c(=O)c4ccccc4c3nc12	-36	97	103	nt	nt

Single records, as listed above. Values in the order: HCMV UL50-53 inh, Sa growth 42C, GIV Gai3 FP, GIV Gai FP conf, GIV-Gai AS conf
CCCCSc1nnc2c(n1)OC(c1cccs1)Nc1ccccc1-2 (stereo not drawn) is entered as -24, nt, 108, nt, nt
O=c1c(=NO)c(=O)c2ccccc12 is entered as 62, 99, 55*, 47*, 13907*
